Experimental data as given in US20210188983A1, “POLYPEPTIDES FOR PREPARING DRUG CONJUGATES CAPABLE OF PROMOTING APOPTOSIS IN A CELL EXPRESSING AN OREXIN RECEPTOR” (UNIVERSITE DE MONTPELLIER, priority 2016, published 2021).

Biological target: orexin receptor-1 (OX1R) (UniProt O43613)
Assay: cell-based or functional assay

Going from Cetux F(ab)2-(LC)-… to Cetux F(ab)-(LC)-… (Fab), the Inhibition of cell growth, % (HEK-OX1R cells, 0.1 µM, 48 h) falls from 35% to 26%.

Compared with Cetux mAb-(HC)-… (antibody), Cetux mAb-(LC + HC)-… (antibody) is higher in Inhibition of cell growth, % (HEK-OX1R cells, 0.1 µM, 48 h): 30% for the first, 37% for the second.

Going from Cetux mAb-(LC)-…(OxA) (antibody) to Cetux mAb-click-…-NH2 (antibody), the Inhibition of cell growth, % (HEK-OX1R cells, 0.1 µM, 48 h) rises from 38% to 52%.
